This is a selection: effects in other tests are not listed, and their absence says nothing.
Molecular target: Cys6 tagged nfnB nitroreductase (Escherichia coli, UniProt P38489)
Assay: Nitroreductase UV assay (NADPH, 340 nm) with various nitro substrates
Conditions: FIG. 5, 25° C.
Procedure: A UV assay and associated spectra were carried out on the NTR obtained at the end of Section 2.3 in solution (≅1.0 μM^(Final), 10 μl), in a cuvette with buffer tris-HCl pH 7.4 (50 mM, 500 μl), NADPH (1 mM, 100 μl), nitroaromatic compound (substrate, various conc.), and flavin mononucleotide (FMN) (1 mM, 5 μl), made up to 1 ml with distilled water at 25° C.
The spectra were collected at a scan rate of 500 nm/min between 220-500 nm resulting in 1 min scans, and the assays were run at 340 nm for 2 min each, using an Uvikon 943 double beam spectrophotometer. The parameters of the spectra and assays are as noted above unless otherwise stated. All spectral measurements were carried out against a blank consisting of the assay solution detailed above, but lacking the nitroreductase enzyme, and all assay measurements were carried out against a blank consisting of the assay solution lacking the substrate, unless otherwise stated.
The influence of the nitroreductase on a buffer solution containing 4-nitrobenzoate (625 μM) was assessed using UV-vis; the nitroreductase (10 μl) was placed in the cuvette prior to run 2.

The chains behind the UniProt entries cited, without tags or fusion partners. A line that says so, or that is headed by a name, gives the form on record, which may keep a tag or linker. Residues count along the entry.
UniProt P38489, 2-217 with tags or gaps: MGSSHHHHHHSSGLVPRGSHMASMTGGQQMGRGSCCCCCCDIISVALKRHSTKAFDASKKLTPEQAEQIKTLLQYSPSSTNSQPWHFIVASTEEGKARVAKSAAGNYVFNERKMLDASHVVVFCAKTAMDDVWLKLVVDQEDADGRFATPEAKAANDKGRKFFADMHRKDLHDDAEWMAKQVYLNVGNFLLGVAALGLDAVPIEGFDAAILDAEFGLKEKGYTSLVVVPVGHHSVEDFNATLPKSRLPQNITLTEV

## Cc1ccc([N+](=O)[O-])cc1[N+](=O)[O-]
  activity of Cys6 tagged nfnB nitroreductase on various substrates (substrate quality): good substrates

From patent US20090120809A1, “Nitroreductase biosensors for detecting nitro-compounds” (published 2009)
